Measured values as given in US11787833B2, “Modified cyclic dinucleoside compounds as sting modulators” (ALIGOS THERAPEUTICS, INC., priority 2019, dated 2023).
Where two headings read alike, the source gives them in different places.

Sequences of proteins named here, by UniProt entry; tags and fusion partners are left off.
UniProt Q86WV6, whole entry H232R: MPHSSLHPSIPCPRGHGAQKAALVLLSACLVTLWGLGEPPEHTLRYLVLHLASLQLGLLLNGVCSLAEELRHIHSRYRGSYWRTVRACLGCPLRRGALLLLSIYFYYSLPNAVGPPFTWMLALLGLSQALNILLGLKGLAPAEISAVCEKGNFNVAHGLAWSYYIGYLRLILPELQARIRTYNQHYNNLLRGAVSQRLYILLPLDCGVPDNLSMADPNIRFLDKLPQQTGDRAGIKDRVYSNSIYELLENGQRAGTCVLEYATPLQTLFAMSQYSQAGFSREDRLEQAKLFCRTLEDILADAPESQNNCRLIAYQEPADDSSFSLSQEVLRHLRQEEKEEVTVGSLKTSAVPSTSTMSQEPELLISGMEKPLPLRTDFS

Experiments:
[1] = molecular target: 293T-Dual hSTING-R232 cells (Homo sapiens, UniProt Q86WV6, H232R); assay: 293T R232 cell reporter assay (HEK 293T reporter assay); format: cell-based
CT26 colon carcinoma = assay: CT26 mouse colon carcinoma in vivo efficacy study, intratumoral dosing; settings: tested form: disodium salt; for Cure Rate (TV < 10 mm^3) / Treatment Failure (TV > 2000 mm^3): 3 times, three days apart, BALB/c mice
Method: The in vivo antitumoral activity of compounds of Formula (I) were studied in the mouse CT26 colon carcinoma model. 10 female 9-week old BALB/c mice/group were implanted subcutaneously with 3×10^5 cells on the flank. Caliper measurements to assess the tumor volume (TV) and body weight measurements were performed daily for the first 8 days and biweekly thereafter until the end of the study. Dosing started when the tumor volumes reached a size of 100 mm^3. The compounds of Formula (I) were tested in two separate studies with their respective vehicle control. Compounds of Formula (I) were dosed 3 times, three days apart, intratumorally at either 25 or 100 μg. The human endpoint is predefined as a TV of 2000 mm^3.

[2] = read-out: EC50 [μM] IRF reporter, digitonin 10 μg/mL, 30 min exposure, 20 h incubation, alkaline phosphatase reporter, tested form: Na salt
[3] = read-out: EC50 [μM] IRN-β reporter, digitonin 10 μg/mL, 30 min exposure, 20 h incubation, luciferase reporter, tested form: Na salt
[4] = read-out: EC50 [μM] IRF reporter, digitonin 10 μg/mL, 30 min exposure, 20 h incubation, alkaline phosphatase reporter, tested form: disodium salt
[5] = read-out: EC50 [μM] IRN-β reporter, digitonin 10 μg/mL, 30 min exposure, 20 h incubation, luciferase reporter, tested form: disodium salt
[6] = three intratumoral doses of 100 g, 10 mice/group

Compound	EC50 [1, 2] [µM]	EC50 [1, 3] [µM]	EC50 [1, 4] [µM]	EC50 [1, 5] [µM]	also measured
Nc1nc2c(ncn2[C@@H]2O[C@]34COP(=O)(O)O[C@H]5[C@H]6OC[C@]5(COP(=O)(S)O[C@@H]2[C@@H]3C4)O[C@H]6n2cnc3c(N)ncnc32)c(=O)[nH]1 (single isomer, unassigned)	< 0.25	< 0.25			
CO[C@H]1[C@H]2OP(=O)(O)OC[C@H]3O[C@@H](c4scc5c(N)ncnc45)C[C@@H]3OP(=O)(O)OC[C@H]1O[C@H]2n1cnc2c(=O)[nH]c(N)nc21	< 0.25	< 0.25			
CO[C@H]1[C@H]2OP(=O)(O)OC[C@H]3O[C@@H](n4cnc5c(N)ncnc54)[C@H](F)[C@@H]3OP(=O)(O)OC[C@H]1O[C@H]2c1snc2c(=O)[nH]c(N)nc12			< 0.25	< 0.25	Cure Rate (TV < 10 mm^3) (CT26 colon carcinoma; 25 μg intratumorally): 20%; Treatment Failure (TV > 2000 mm^3) (CT26 colon carcinoma; 25 μg intratumorally): 80%; Cure Rate (TV < 10 mm^3) (CT26 colon carcinoma; 100 μg intratumorally): 90%; Treatment Failure (TV > 2000 mm^3) (CT26 colon carcinoma; 100 μg intratumorally): 10%; animals with delayed tumor growth (CT26 colon carcinoma; three intratumoral doses of 25 g, 10 mice/group, compared to vehicle control): 8 animals; animals tumor-free (no measurable tumors) at the end of the study (CT26 colon carcinoma; three intratumoral doses of 25 g, 10 mice/group): two; animals reaching a TV=2000 mm^3 (CT26 colon carcinoma; [6]): one; tumor-free animals at the end of the study (CT26 colon carcinoma; [6]): 9 out of 10
COC1C2COP(=O)(S)OC3C(O)C(n4cnc5c(N)ncnc54)C4CC43COP(=O)(O)OC1C(n1cnc3c(=O)[nH]c(N)nc31)O2 (single isomer, unassigned)					EC50 ([1]; read-out: EC50 [μM] IRF reporter, digitonin 10 μg/mL, 30 min exposure, 20 h incubation, alkaline phosphatase reporter, tested form: sodium salt): < 0.25 µM; EC50 ([1]; read-out: EC50 [μM] IRN-β reporter, digitonin 10 μg/mL, 30 min exposure, 20 h incubation, luciferase reporter, tested form: sodium salt): < 0.25 µM

Second part, led by results:

EC50 [1, 2] [µM]	EC50 [1, 3] [µM]	EC50 [1, 4] [µM]	EC50 [1, 5] [µM]	Compound	also measured
		0.25 to 100	0.25 to 100	Nc1nc2c(ncn2C2OC34COC2C3OP(=O)(O)OCC23CC2C(n2cnc5c(N)ncnc52)C(O)C3OP(=O)(S)OC4)c(=O)[nH]1 (stereo not shown) [Compound 1-21b]	
< 0.25	0.25 to 100			Nc1nc2c(nnn2C2OC3COP(=O)(S)OC4C(O)C(n5cnc6c(N)ncnc65)C5CC54COP(=O)(O)OC2C3O)c(=O)[nH]1 (stereo not shown)	
		< 0.25	< 0.25	COC1C2COP(=O)(S)OC3C(COP(=O)(O)OC1C(n1cnc4c(=O)[nH]c(N)nc41)O2)C1CC1(n1cnc2c(N)ncnc21)C3O (stereo not shown) [Compound 1-16a]	
